BindingDB's records for doi:10.1016/s0960-894x(02)01047-8 (Glaxosmithkline, 2003)

Protein sequences, listed by entry. Tags and fused reporters are not part of them.
UniProt P00533, whole entry: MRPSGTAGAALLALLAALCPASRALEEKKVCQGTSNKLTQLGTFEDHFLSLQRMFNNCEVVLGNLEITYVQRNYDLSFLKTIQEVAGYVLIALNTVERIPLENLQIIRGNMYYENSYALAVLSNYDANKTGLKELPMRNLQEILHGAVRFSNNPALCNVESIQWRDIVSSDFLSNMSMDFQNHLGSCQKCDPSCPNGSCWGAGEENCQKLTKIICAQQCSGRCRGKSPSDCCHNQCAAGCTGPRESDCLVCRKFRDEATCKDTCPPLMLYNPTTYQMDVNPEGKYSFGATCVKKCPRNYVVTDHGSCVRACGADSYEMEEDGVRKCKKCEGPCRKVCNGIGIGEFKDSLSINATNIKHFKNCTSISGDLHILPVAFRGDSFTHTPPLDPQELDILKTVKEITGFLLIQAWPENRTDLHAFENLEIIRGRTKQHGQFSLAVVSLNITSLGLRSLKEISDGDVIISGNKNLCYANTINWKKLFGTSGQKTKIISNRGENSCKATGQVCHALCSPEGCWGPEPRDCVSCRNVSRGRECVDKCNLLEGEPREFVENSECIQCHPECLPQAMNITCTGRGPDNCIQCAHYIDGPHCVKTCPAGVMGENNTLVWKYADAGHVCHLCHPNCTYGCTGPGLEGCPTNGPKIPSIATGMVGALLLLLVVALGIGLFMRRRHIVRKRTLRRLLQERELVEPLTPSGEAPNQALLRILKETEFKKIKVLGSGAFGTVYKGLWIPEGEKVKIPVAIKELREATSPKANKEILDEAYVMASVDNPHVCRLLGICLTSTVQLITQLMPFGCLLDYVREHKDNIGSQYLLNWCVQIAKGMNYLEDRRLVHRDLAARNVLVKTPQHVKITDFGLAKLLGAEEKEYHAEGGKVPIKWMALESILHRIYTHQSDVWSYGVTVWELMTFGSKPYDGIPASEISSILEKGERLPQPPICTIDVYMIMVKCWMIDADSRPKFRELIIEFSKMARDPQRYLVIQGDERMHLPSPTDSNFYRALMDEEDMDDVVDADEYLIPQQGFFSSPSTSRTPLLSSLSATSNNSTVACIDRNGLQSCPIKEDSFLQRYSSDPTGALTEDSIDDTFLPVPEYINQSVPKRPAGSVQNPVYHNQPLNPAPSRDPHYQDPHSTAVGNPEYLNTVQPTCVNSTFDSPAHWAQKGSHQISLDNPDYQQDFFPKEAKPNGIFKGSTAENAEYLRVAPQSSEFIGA

Molecular target: Epidermal growth factor receptor (Homo sapiens, UniProt P00533)
Assay: Kinase Inhibition Assay
Description: Enzymatic reactions were initiated by adding kinase to the reaction mixture containing ATP, [gamma-33P] ATP, peptide substrate and test inhibitor compound. The reactions were terminated after 10 min at 23 °C. The reaction mix was then transferred to filter plates for scintillation counting. Each inhibitor compound was added to the reaction to produce an 11-point dose-response curve (0.0001 to 10 uM).

## CS(=O)(=O)CCNCCCCOc1ccc2ncnc(Nc3ccc4c(cnn4Cc4cccc(F)c4)c3)c2c1 [N-{1-[(3-fluorophenyl)methyl]-1H-indazol-5-yl}-6-{4-[(2-methanesulfonylethyl)amino]butoxy}quinazolin-4-amine]
  IC50: 24 nM
